Test results taken from patent US12390441B2, “Immunomodulating o-het/aryl azalides” (Zoetis Services LLC, priority 2020, dated 2025).
Read-outs that look alike come from different tables or passages of the source.

Test system: BRD pathogens, M. haemolytica and P. multocida
Assay: In-vitro MIC model, BRD pathogen screening panel
Format: cell-based, Mannheimia haemolytica; Pasteurella multocida
[1] = M. haemolytica and P. multocida strains

CC[C@H]1OC(=O)[C@H](C)[C@@H](O[C@H]2C[C@@](C)(OC)[C@@H](O)[C@H](C)O2)[C@H](C)[C@@H](O[C@@H]2O[C@H](C)C[C@H](NC)[C@H]2Oc2ccccc2)[C@](C)(O)C[C@@H](C)CN(C)[C@H](C)[C@@H](O)[C@]1(C)O [Example A-26, (2R,3S,4R,5R,8R,10R,11R,12S,13S,14R)-2-ethyl-3,4,10-trihydroxy-13-(((2R,4R,5S,6S)-5-hydroxy-4-methoxy-4,6-dimethyltetrahydro-2H-pyran-2-yl)oxy)-3,5,6,8,10,12,14-heptamethyl-11-(((2S,3R,4S,6R)-6-methyl-4-(methylamino)-3-phenoxytetrahydro-2H-pyran-2-yl)oxy)-1-oxa-6-azacyclopentadecan-15-one]
antibacterial / non-antibacterial classification: non-antibacterial (a compound with an MIC≥64 μg/mL for the BRD pathogens, M. haemolytica and P. multocida)

CC[C@H]1OC(=O)[C@H](C)[C@@H](O)[C@H](C)[C@@H](O[C@@H]2O[C@H](C)C[C@H](NC)[C@H]2Oc2ccc(F)cc2)[C@](C)(O)C[C@@H](C)CN[C@H](C)[C@@H](O)[C@]1(C)O [Example B-4, (2R,3S,4R,5R,8R,10R,11R,12S,13S,14R)-2-ethyl-11-(((2S,3R,4S,6R)-3-(4-fluorophenoxy)-6-methyl-4-(methylamino)tetrahydro-2H-pyran-2-yl)oxy)-3,4,10,13-tetrahydroxy-3,5,8,10,12,14-hexamethyl-1-oxa-6-azacyclopentadecan-15-one]
antibacterial / non-antibacterial classification: non-antibacterial (a compound with an MIC≥64 μg/mL for the BRD pathogens, M. haemolytica and P. multocida)

CC[C@H]1OC(=O)[C@H](C)[C@@H](O)[C@H](C)[C@@H](O[C@@H]2O[C@H](C)C[C@H](NC)[C@H]2Oc2ccc(OC)cc2)[C@](C)(O)C[C@@H](C)CN[C@H](C)[C@@H](O)[C@]1(C)O [Example B-6, (2R,3S,4R,5R,8R,10R,11R,12S,13S,14R)-2-ethyl-3,4,10,13-tetrahydroxy-11-(((2S,3R,4S,6R)-3-(4-methoxyphenoxy)-6-methyl-4-(methylamino)tetrahydro-2H-pyran-2-yl)oxy)-3,5,8,10,12,14-hexamethyl-1-oxa-6-azacyclopentadecan-15-one]
antibacterial / non-antibacterial classification: non-antibacterial (a compound with an MIC≥64 μg/mL for the BRD pathogens, M. haemolytica and P. multocida)

CC[C@H]1OC(=O)[C@H](C)[C@@H](O)[C@H](C)[C@@H](O[C@@H]2O[C@H](C)C[C@H](N(C)C(=O)N(C)c3ccccc3)[C@H]2Oc2ccccc2)[C@](C)(O)C[C@@H](C)CN(C)[C@H](C)[C@@H](O)[C@]1(C)O [Example C-12, 1-((2S,3R,4S,6R)-2-(((2R,3S,4R,5R,8R,10R,11R,12S,13S,14R)-2-ethyl-3,4,10,13-tetrahydroxy-3,5,6,8,10,12,14-heptamethyl-15-oxo-1-oxa-6-azacyclopentadecan-11-yl)oxy)-6-methyl-3-phenoxytetrahydro-2H-pyran-4-yl)-1,3-dimethyl-3-phenylurea]
antibacterial / non-antibacterial classification [1]: non-antibacterial (a compound with an MIC≥64 μg/mL for the BRD pathogens, M. haemolytica and P. multocida)

CCCNC[C@]1(O)[C@H](C)O[C@@H](O[C@H]2[C@H](C)[C@@H](O[C@@H]3O[C@H](C)C[C@H](N(C)C)[C@H]3Oc3ccccc3)[C@](C)(O)C[C@@H](C)CN[C@H](C)[C@@H](O)[C@](C)(O)[C@@H](CC)OC(=O)[C@@H]2C)C[C@@]1(C)OC [Example E-3, (2R,3S,4R,5R,8R,10R,11R,12S,13S,14R)-11-(((2S,3R,4S,6R)-4-(dimethylamino)-6-methyl-3-phenoxytetrahydro-2H-pyran-2-yl)oxy)-2-ethyl-3,4,10-trihydroxy-13-(((2R,4R,5S,6S)-5-hydroxy-4-methoxy-4,6-dimethyl-5-((propylamino)methyl)tetrahydro-2H-pyran-2-yl)oxy)-3,5,8,10,12,14-hexamethyl-1-oxa-6-azacyclopentadecan-15-one]
antibacterial / non-antibacterial classification [1]: non-antibacterial (a compound with an MIC≥64 μg/mL for the BRD pathogens, M. haemolytica and P. multocida)

CCCNC[C@]1(O)[C@H](C)O[C@@H](O[C@H]2[C@H](C)[C@@H](O[C@@H]3O[C@H](C)C[C@H](NC)[C@H]3Oc3ccc(Cl)nc3)[C@](C)(O)C[C@@H](C)CN[C@H](C)[C@@H](O)[C@](C)(O)[C@@H](CC)OC(=O)[C@@H]2C)C[C@@]1(C)OC [Example E-8, (2R,3S,4R,5R,8R,10R,11R,12S,13S,14R)-11-(((2S,3R,4S,6R)-3-((6-chloropyridin-3-yl)oxy)-6-methyl-4-(methylamino)tetrahydro-2H-pyran-2-yl)oxy)-2-ethyl-3,4,10-trihydroxy-13-(((2R,4R,5S,6S)-5-hydroxy-4-methoxy-4,6-dimethyl-5-((propylamino)methyl)tetrahydro-2H-pyran-2-yl)oxy)-3,5,8,10,12,14-hexamethyl-1-oxa-6-azacyclopentadecan-15-one]
antibacterial / non-antibacterial classification [1]: non-antibacterial (a compound with an MIC≥64 μg/mL for the BRD pathogens, M. haemolytica and P. multocida)

CCCNC[C@]1(O)[C@H](C)O[C@@H](O[C@H]2[C@H](C)[C@@H](O[C@@H]3O[C@H](C)C[C@H](NC)[C@H]3Oc3ncc(Cl)cn3)[C@](C)(O)C[C@@H](C)CN[C@H](C)[C@@H](O)[C@](C)(O)[C@@H](CC)OC(=O)[C@@H]2C)C[C@@]1(C)OC [Example E-30, (2R,3S,4R,5R,8R,10R,11R,12S,13S,14R)-11-(((2S,3R,4S,6R)-3-((5-chloropyrimidin-2-yl)oxy)-6-methyl-4-(methylamino)tetrahydro-2H-pyran-2-yl)oxy)-2-ethyl-3,4,10-trihydroxy-13-(((2R,4R,5S,6S)-5-hydroxy-4-methoxy-4,6-dimethyl-5-((propylamino)methyl)tetrahydro-2H-pyran-2-yl)oxy)-3,5,8,10,12,14-hexamethyl-1-oxa-6-azacyclopentadecan-15-one]
antibacterial / non-antibacterial classification [1]: non-antibacterial (a compound with an MIC≥64 μg/mL for the BRD pathogens, M. haemolytica and P. multocida)

CCCNC[C@]1(O)[C@H](C)O[C@@H](O[C@H]2[C@H](C)[C@@H](O[C@@H]3O[C@H](C)C[C@H](NC)[C@H]3Oc3ccccc3)[C@](C)(O)C[C@@H](C)CN[C@H](C)[C@@H](O)[C@](C)(O)[C@@H](CC)OC(=O)[C@@H]2C)C[C@@]1(C)OC [Example E-112, (2R,3S,4R,5R,8R,10R,11R,12S,13S,14R)-2-ethyl-3,4,10-trihydroxy-13-(((2R,4R,5S,6S)-5-hydroxy-4-methoxy-4,6-dimethyl-5-((propylamino)methyl)tetrahydro-2H-pyran-2-yl)oxy)-3,5,8,10,12,14-hexamethyl-11-(((2S,3R,4S,6R)-6-methyl-4-(methylamino)-3-phenoxytetrahydro-2H-pyran-2-yl)oxy)-1-oxa-6-azacyclopentadecan-15-one]
antibacterial / non-antibacterial classification [1]: non-antibacterial (a compound with an MIC≥64 μg/mL for the BRD pathogens, M. haemolytica and P. multocida)

CCCNC[C@]1(O)[C@H](C)O[C@@H](O[C@H]2[C@H](C)[C@@H](O[C@@H]3O[C@H](C)C[C@H](NC)[C@H]3Oc3ccccc3)[C@](C)(O)C[C@@H](C)CN(CCC)[C@H](C)[C@@H](O)[C@](C)(O)[C@@H](CC)OC(=O)[C@@H]2C)C[C@@]1(C)OC [Example E-157]
antibacterial / non-antibacterial classification [1]: non-antibacterial (a compound with an MIC≥64 μg/mL for the BRD pathogens, M. haemolytica and P. multocida)
